AlphaSeq binding of Ab-14 heavy chain variants to a spike HR2 peptide

Values reported by Li et al. 2023, doi:10.1038/s41467-023-39022-2 (FLAb copy).

Target peptide (SARS-CoV-2 spike, HR2 region): PDVDLGDISGINAS

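The starting antibody came from a phage panning campaign against this peptide. Designed CDR sequences, proposed from the first random library and measured here. Several design methods are mixed in this list. Affinity was read by AlphaSeq, a pooled yeast mating assay with surface-displayed partners. After mating in shaken culture at 30 °C for 16 h, diploids were selected and their barcode pairs sequenced. The ratio of observed to expected reads was calibrated, replicate by replicate, on BCL2-family standards whose Kd was known from biolayer interferometry. The assay was run in six technical replicates.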

Ab-14 is the parent antibody, in scFv form: VH, then three GGGGS repeats, then VL. The light chain is unchanged in all variants.
VH: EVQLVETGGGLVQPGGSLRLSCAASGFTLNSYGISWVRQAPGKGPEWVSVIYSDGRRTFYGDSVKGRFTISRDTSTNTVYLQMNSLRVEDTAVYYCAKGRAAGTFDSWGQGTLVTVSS
VL: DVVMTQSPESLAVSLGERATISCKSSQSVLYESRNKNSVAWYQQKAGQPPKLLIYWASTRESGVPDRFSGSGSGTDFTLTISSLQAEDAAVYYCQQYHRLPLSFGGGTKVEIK

Each variant is given by its three heavy chain CDRs, as the data file delimits them; those of the parent are GFTLNSYGIS, VIYSDGRRTFYGDSVK, GRAAGTFDS. Variants here have at most six changes. Values are apparent Kd, the geometric mean of the replicates that gave a signal; lower means stronger binding. A pair that was not seen in any replicate is written "nd"; this usually means weak binding, but a binder can also be missed.

The variant GVTLNSYGIS / VIYSDGRRRFYGDSVK / GFAPGTFDS gave nd (0 of 6 replicates).
The variant GFFLNEYGIS / VIYSDGRRTFYGDSVK / GQAAGTFDT gave 21 nM (6 of 6 replicates).
The variant GFTLNSYGIS / VIYSDGRRTFYGDSVK / GYLAGTFDS gave 50 nM (3 of 6 replicates).
The variant GFSLNSYGIS / VIYSDGRRTFYVDSVK / GQAAGTFDQ gave 71 nM (2 of 6 replicates).
The variant GFTLEDYGIS / VIYSDGRRTFYGDSVK / GRAMGTFDS gave 210 nM (1 of 6 replicates).
The variant GFTLNSYGIS / VIYSDGRRTFYSDSVK / GRTAGTFDT gave 3.9 nM (6 of 6 replicates).
The variant GFNLNEYGIS / VIYADGRRTFYSDSVK / GEAAGTFDL gave 1.1 nM (6 of 6 replicates).
The variant GFKLNSYGIS / VIYSDGRRTFYGDSVK / GKVAGTFDS gave 3.9 nM (5 of 6 replicates).
The variant GFSLNSYGIS / VIYSDGIRTFYGDSVK / GNIAGTFDS gave 7.9 nM (5 of 6 replicates).
The variant GFTLNSYGIS / VIYSDGRRTFYIDSVK / GKVAGTFDS gave 28 nM (4 of 6 replicates).
The variant GFILNSYGIS / VIYSDGRRTFYVDSVK / GQLAGTFDS gave 48 nM (2 of 6 replicates).
The variant GFTLNDYGIE / VIYSIPRRTFYGDSVK / GRAALTFIS gave nd (0 of 6 replicates).
The variant GFTLNSYGIS / VIYSDGYRTMYGDSVK / GRAAGTFDS gave nd (0 of 6 replicates).
The variant GFVLNEYGIS / VIYSDGRRTFYGDSVK / GKAAGTFDC gave 160 nM (2 of 6 replicates).
The variant GFTLNDYGIS / VIYSDGRRTFYEDSVD / GGAAGTFKK gave nd (0 of 6 replicates).
The variant GFTLNSYGIS / VIYSDGRRTFYQDSVK / GRAAGTFTQ gave nd (0 of 6 replicates).
The variant GFTLNEYGIS / VIYSDGMRTFYGDSVK / GRTAGTFDK gave 2.3 nM (6 of 6 replicates).
The variant GFTLNSYGIS / VIYSDGRRTFYSDSVK / GMAGGTFDV gave 13 nM (4 of 6 replicates).
The variant GFTLDSYGIS / VIYSDGRRTFYIDSVK / GRAAGTFMS gave 150 nM (1 of 6 replicates).
The variant GFTLNEYGIS / VIYSDGRRTFYKDSVK / GRAVGTFDS gave nd (0 of 6 replicates).
The variant GFTLNSYGIS / VIYSDGRRTFYSDTVK / GRAGGTWDS gave nd (0 of 6 replicates).
The variant PFDLNSYGIS / VIYSDGRRTFYGDSVK / GREAGTFDS gave nd (0 of 6 replicates).
The variant GFTLDSYGIS / VIYSDGRRTFYGDSVK / GSAAGTFDS gave 9.6 nM (6 of 6 replicates).
The variant GFDLNSYGIS / VIYSDGRRTFYKDKVK / GRTAGTFDS gave 860 pM (6 of 6 replicates).
The variant GFELNSYGIS / VIYSDGRRTFYADSVK / GKTAGTFDV gave 1.7 nM (6 of 6 replicates).
The variant GFHLNSYGIS / VIYSDGRRTFYIDSVK / GDAAGTFDS gave 27 nM (6 of 6 replicates).
The variant GFELNSYGIS / VIYSDGRRTFYQDSVK / GKAAGTFDT gave 3.4 nM (6 of 6 replicates).
The variant GFTLNEYGIS / VIYSDGRRTFYQDSVK / GRAAVTFDQ gave nd (0 of 6 replicates).
The variant GFTLNSYGIQ / VIYSDGLRTFYGDSVK / RRQAGTYDS gave nd (0 of 6 replicates).
The variant GFDLNSYGIS / VIYSDGRRTFYGDNVK / GNAAGTFDS gave 2.0 nM (6 of 6 replicates).
The variant GFDLNSYGIS / VIYSDGRRTFYGDSVK / GRYAGTFDQ gave 280 nM (5 of 6 replicates).
The variant WFTLNQYGIS / VIYSDGRRTFYSKSVK / GRAAGFFDS gave 97 nM (1 of 6 replicates).
The variant GFELNSYGIS / VIYSDGRRTFYGDSVK / GREAGTFDK gave 3.0 nM (6 of 6 replicates).
The variant GFNLNSYGIS / VIYSDGRRTFYGDDVK / GREAGTFDS gave 3.4 nM (5 of 6 replicates).
The variant GFTLNSYGIS / VIYADGRRTFYNDSVK / GRAADTFDS gave nd (0 of 6 replicates).
The variant GFELNSYGIS / VIYSDGRRTFYADSVK / GQAAGTFDT gave 1.2 nM (6 of 6 replicates).
The variant GFHLNSYGSS / VIYSDGRRTFYGDSVK / GRATGTFDS gave nd (0 of 6 replicates).
The variant EFTLNSYGIS / VIYSDGRRTFYADSVK / GRIAGTFDS gave 2.9 nM (6 of 6 replicates).
The variant GFTLNSYGIS / VIYSDGRRTFYLDNVK / GREAGTFDS gave nd (0 of 6 replicates).
The variant GFDLNSYGIS / VIYSDGRRTFYGDSVK / GRTAGTFNS gave nd (0 of 6 replicates).
The variant GFTLNEYGIS / VIYSDGRRTFYDDSVK / GRVAGTFES gave 8.0 nM (2 of 6 replicates).
The variant GFTLNSYGKS / VIYSDGRRTFYGDSVK / GGAAGTFDS gave nd (0 of 6 replicates).

Extract of 3 entries:

For GFELNSYGIS / VIYSDGRRTFYADSVK / GQAAGTFDT, the assay gave 1.2 nM (6 of 6 replicates).
For WFTLNQYGIS / VIYSDGRRTFYSKSVK / GRAAGFFDS, the assay gave 97 nM (1 of 6 replicates).
For GFDLNSYGIS / VIYSDGRRTFYKDKVK / GRTAGTFDS, the assay gave 860 pM (6 of 6 replicates).

Background: pairings of all heavy chain designs with three empty control strains gave a value in 1% of cases (median 120 nM, 5th percentile 7.0 nM). Values in that range, when seen in few replicates, are hard to tell from nonspecific mating. The authors averaged sequences with at least three values out of six and counted those with two or fewer as poor binders. Values of this round are not directly comparable with the first-round values of the same sequences.